# AlphaSeq binding of Ab-95 light chain variants to a spike HR2 peptide

Target: peptide PDVDLGDISGINAS, taken from heptad repeat 2 (HR2) of SARS-CoV-2 spike.

Each scFv is VH, the linker GGGGSGGGGSGGGGS, VL, as in the parent Ab-95, and differs from it in the CDRs of the light chain only.
VH: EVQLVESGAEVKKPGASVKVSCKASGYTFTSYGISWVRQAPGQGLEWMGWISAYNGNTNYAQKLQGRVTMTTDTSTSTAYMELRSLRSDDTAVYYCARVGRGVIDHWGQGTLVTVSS
VL: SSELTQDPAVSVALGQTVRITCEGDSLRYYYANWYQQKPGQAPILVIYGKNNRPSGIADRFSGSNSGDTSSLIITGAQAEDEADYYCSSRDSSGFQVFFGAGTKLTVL

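In library AAYL52, one, two or three CDR residues were substituted; doubles and triples were drawn at random. The scFvs were displayed on barcoded MATa yeast, the peptide on MATalpha yeast. The frequency of each diploid, read from paired DNA barcodes, reflects how well the two displayed proteins bind. Scores were corrected for input abundance and mapped to Kd with protein pairs of known affinity run in the same pool. Mating was done three times.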

Substitutions are numbered in sequence along the VL above, starting at 1 (not Kabat). This list gathers variants with a substitution at L27 (VL, numbered from residue 1). Affinities are written as log10 Kd with Kd in nM; a lower number is a better binder. "nd" marks a missing value. The strain was present, yet no cells mated with the target were sequenced in that replicate, which points to weak or no binding.

The variant L27A+R90K+S92V showed 3.41, nd, 3.27. The variant S26P+L27A+R28G showed 3.87, 3.66, nd. For L27S+N51C+S89Q, the assay gave nd, nd, nd. For L27G+N51C+D91N, the assay gave 3.29, nd, nd. The variant D25N+L27G+Q96T gave 4.05, nd, nd. With L27V+N52A+S55K the result was nd, 3.17, nd. For G24Y+L27F+K50R, the assay gave 3.43, 3.61, nd. The variant L27G+P54F+S89L showed 3.59, 5.19, nd. For L27T+D91Y, the assay gave 3.82, 3.95, nd.

For G24L+D25R+L27M, the assay gave 3.15, 2.68, 2.44. With L27I+Q96E the result was 2.80, 2.93, 3.14. The variant L27C+R53K+S89H gave 1.91, 2.18, 1.95. The variant L27A+Y29P+Y30P showed 2.60, 2.07, 2.22. For L27F+Y29C, the assay gave nd, nd, 3.62. The variant L27R+Y30E+P54E gave 1.44, 0.88, 0.48. With E23D+L27M the result was 1.68, 1.71, 1.23. The variant L27C+A32R+S93L gave nd, nd, nd. For L27M+G49I+N52K, the assay gave 3.86, nd, 3.58.

The variant L27A+S89C+G94Q gave 4.69, nd, 4.11. For L27H+R28T+Y31R, the assay gave nd, nd, nd. For L27K+G94L+F95T, the assay gave nd, nd, nd. The variant L27I+Y30M+D91Y gave 3.71, nd, nd. The variant D25G+L27E+S92V gave 3.72, 4.07, nd. For L27I+N51L+N52A, the assay gave nd, nd, nd. With L27K+K50C+F95T the result was 2.89, nd, 4.44. The variant L27S+N51K+S88E gave 4.33, 3.61, nd. The variant L27C+R28K+S92H showed nd, 4.11, nd.

For L27N+Y30W+G94R, the assay gave nd, 4.69, 3.48. The variant L27W+R28N+G49Y gave nd, nd, nd. With L27S+K50Y+S55Q the result was 3.57, 4.02, 3.54. With G24P+D25R+L27M the result was nd, nd, nd. With L27P+R28A+S93P the result was 3.67, nd, nd. The variant L27P+Y30Q+N51E showed 3.95, nd, nd. For L27H+N51V+S55K, the assay gave nd, nd, 3.79. With L27F+K50I+S89T the result was nd, 5.86, nd. For L27F+Y31K+K50L, the assay gave 2.12, 2.30, 1.73.

The variant S26L+L27T+R90M showed 4.43, nd, nd. With L27S+K50N+F98G the result was 2.83, nd, nd. With L27A+R28Y+F98D the result was 4.52, 3.24, nd. For L27P+S89K+F98G, the assay gave nd, nd, 3.39. For L27D+G49T, the assay gave nd, nd, 3.66. The variant L27Q+N52I+G94H gave 3.81, nd, nd. With L27W+Y31P+K50Q the result was 1.81, 1.64, 1.56. The variant G24K+L27V+F98G gave nd, 3.55, 4.37. The variant L27G+R28D+S89M showed 2.58, 2.34, 2.53.

The variant L27Y+S92R+S93T showed 3.93, 2.50, 4.42. For L27V+K50Q+R53L, the assay gave 4.66, nd, 4.84. For L27N+K50Q+G94W, the assay gave nd, nd, 4.63. The variant L27C+N51P+Q96C showed 4.88, nd, 3.81. For L27I+N52H+S93C, the assay gave nd, 4.04, nd. For L27W+V97L, the assay gave 3.62, 5.47, nd. For L27D+Y29K+R53V, the assay gave 5.09, nd, 3.79.

The first 5 variants above that were never detected:

Variant L27S+N51C+S89Q showed nd, nd, nd.
Variant L27C+A32R+S93L showed nd, nd, nd.
Variant L27H+R28T+Y31R showed nd, nd, nd.
Variant L27K+G94L+F95T showed nd, nd, nd.
Variant L27I+N51L+N52A showed nd, nd, nd.

In this assay the parent's reference entry averaged 2.31; its copy inside this library read 2.25. Empty control strains, which show no peptide, gave a signal in 28% of pairings with library AAYL52; the median was 3.91 and 95% of these signals were weaker than 2.90. No background was subtracted.

Source: Engelhart et al. 2022 (doi:10.1038/s41597-022-01779-4), MIT Lincoln Laboratory and A-Alpha Bio; data file from the FLAb repository.